Results published in patent publication US10189853B2, “Conformationally restricted 4-substituted-2,6-dimethylfuro[2,3-d]pyrimidines as anti-tumor agents” (DUQUESNE UNIVERSITY OF THE HOLY SPIRIT, priority 2014, dated 2019).

Chains of the proteins cited; added tags and fusions are not shown. Residues count along the entry.
UniProt P09619, 33-1106: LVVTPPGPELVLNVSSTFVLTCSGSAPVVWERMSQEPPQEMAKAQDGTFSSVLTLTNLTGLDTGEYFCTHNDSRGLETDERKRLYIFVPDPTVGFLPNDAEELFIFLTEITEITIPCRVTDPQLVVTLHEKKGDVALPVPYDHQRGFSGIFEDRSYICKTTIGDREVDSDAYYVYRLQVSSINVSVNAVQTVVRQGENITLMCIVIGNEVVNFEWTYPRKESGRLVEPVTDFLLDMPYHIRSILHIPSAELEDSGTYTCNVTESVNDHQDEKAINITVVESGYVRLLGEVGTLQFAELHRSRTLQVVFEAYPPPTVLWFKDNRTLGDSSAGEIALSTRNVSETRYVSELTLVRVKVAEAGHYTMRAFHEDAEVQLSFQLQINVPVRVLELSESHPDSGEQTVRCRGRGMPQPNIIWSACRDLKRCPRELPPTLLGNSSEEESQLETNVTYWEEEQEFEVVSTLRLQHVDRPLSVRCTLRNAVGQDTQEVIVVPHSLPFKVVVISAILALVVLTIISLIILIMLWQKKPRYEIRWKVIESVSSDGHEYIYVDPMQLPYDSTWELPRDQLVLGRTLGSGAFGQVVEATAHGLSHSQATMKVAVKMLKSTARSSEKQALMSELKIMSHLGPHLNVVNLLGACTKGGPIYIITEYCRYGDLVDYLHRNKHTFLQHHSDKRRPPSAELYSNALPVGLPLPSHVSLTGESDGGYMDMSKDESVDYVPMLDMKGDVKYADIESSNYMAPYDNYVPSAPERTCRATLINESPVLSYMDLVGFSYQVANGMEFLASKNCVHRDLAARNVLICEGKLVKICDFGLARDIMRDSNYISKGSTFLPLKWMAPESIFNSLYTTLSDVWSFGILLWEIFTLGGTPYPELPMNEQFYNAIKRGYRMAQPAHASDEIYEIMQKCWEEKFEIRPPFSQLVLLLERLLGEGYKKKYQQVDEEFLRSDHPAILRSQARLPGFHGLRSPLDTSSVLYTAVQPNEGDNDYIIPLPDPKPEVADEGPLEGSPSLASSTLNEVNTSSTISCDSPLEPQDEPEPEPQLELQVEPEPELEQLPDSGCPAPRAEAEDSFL

Tests used:
PDGFR-β = PDGFR-β (Homo sapiens (Human), UniProt P09619); assay: PDGFR-β kinase inhibition, phosphotyrosine ELISA cytoblot; type: cell-based; conditions: SH-SY5Y cells
purified tubulin = assay: Inhibition of tubulin assembly; type: biochemical; conditions: read-out: Inhibition tubulin assembly IC50 ± SD

Row | IC50 (PDGFR-β) | IC50 (purified tubulin) | Compound
1 | 0.198 ± 0.0225 µM |  | COc1ccc2c(ccn2-c2nc(C)nc3oc(C)cc23)c1 [Compound 9, 4-(5-methoxy-1H-indol-1-yl)-2,6-dimethylfuro[2,3-d]pyrimidine]
2 |  | 1.1 ± 0.1 µM | COc1ccc2c(c1)CCCN2c1nc(C)nc2oc(C)cc12 [Compound 10, 4-(6-methoxy-3,4-dihydroquinolin-1(2H)-yl)-2,6-dimethylfuro[2,3-d]pyrimidine]
